Laboratory results published in ChEMBL document CHEMBL5380781, “Recent Advances on Small-Molecule Bromodomain-Containing Histone Acetyltransferase Inhibitors” (J Med Chem, 2023).

The chains behind the UniProt entries cited, without tags or fusion partners. Where a name states a change or a piece, a line headed by the entry shows the natural chain unless it says otherwise.
UniProt Q92831: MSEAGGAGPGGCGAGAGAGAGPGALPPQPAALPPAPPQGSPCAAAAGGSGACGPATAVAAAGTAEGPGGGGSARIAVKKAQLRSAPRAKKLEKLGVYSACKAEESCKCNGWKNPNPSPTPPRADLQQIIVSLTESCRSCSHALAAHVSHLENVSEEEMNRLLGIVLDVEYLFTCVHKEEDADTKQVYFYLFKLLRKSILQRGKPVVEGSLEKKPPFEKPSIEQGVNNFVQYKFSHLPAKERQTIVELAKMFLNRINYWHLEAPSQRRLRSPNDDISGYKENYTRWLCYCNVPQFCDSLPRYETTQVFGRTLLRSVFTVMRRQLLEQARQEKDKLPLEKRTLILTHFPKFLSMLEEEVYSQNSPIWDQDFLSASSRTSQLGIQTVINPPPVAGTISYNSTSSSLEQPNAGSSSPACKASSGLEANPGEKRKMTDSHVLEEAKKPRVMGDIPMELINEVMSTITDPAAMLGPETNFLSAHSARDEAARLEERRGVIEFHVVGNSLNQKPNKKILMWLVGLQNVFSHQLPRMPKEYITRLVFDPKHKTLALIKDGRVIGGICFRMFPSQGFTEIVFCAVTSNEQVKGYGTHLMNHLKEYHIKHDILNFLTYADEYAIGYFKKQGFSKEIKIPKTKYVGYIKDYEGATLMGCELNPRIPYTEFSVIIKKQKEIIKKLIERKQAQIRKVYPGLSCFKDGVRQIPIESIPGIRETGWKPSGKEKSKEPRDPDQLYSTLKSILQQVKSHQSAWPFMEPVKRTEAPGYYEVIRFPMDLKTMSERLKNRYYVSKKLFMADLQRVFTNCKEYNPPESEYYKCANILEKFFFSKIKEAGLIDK
UniProt Q92830: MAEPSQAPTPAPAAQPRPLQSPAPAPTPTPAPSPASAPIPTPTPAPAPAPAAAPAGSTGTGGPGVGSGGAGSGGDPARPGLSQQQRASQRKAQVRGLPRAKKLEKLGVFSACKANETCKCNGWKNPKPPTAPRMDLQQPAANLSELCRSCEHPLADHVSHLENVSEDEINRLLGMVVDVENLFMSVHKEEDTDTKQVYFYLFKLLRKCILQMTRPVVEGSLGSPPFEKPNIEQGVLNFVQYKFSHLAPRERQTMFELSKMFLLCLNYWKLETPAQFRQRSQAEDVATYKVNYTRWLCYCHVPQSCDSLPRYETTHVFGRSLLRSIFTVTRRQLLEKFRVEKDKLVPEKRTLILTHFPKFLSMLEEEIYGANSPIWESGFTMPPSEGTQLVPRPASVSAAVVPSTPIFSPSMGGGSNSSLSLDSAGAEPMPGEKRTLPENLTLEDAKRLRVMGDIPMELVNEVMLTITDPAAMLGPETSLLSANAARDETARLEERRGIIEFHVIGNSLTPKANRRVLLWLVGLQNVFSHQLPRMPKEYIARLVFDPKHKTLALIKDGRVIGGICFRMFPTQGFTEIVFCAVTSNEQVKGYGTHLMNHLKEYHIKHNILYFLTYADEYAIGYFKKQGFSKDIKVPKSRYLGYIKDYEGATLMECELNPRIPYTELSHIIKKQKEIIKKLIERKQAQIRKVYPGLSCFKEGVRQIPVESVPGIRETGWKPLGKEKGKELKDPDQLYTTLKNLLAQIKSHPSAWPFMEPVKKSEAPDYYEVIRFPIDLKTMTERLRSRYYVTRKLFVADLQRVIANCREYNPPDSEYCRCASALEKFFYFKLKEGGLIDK
UniProt Q92793, whole entry: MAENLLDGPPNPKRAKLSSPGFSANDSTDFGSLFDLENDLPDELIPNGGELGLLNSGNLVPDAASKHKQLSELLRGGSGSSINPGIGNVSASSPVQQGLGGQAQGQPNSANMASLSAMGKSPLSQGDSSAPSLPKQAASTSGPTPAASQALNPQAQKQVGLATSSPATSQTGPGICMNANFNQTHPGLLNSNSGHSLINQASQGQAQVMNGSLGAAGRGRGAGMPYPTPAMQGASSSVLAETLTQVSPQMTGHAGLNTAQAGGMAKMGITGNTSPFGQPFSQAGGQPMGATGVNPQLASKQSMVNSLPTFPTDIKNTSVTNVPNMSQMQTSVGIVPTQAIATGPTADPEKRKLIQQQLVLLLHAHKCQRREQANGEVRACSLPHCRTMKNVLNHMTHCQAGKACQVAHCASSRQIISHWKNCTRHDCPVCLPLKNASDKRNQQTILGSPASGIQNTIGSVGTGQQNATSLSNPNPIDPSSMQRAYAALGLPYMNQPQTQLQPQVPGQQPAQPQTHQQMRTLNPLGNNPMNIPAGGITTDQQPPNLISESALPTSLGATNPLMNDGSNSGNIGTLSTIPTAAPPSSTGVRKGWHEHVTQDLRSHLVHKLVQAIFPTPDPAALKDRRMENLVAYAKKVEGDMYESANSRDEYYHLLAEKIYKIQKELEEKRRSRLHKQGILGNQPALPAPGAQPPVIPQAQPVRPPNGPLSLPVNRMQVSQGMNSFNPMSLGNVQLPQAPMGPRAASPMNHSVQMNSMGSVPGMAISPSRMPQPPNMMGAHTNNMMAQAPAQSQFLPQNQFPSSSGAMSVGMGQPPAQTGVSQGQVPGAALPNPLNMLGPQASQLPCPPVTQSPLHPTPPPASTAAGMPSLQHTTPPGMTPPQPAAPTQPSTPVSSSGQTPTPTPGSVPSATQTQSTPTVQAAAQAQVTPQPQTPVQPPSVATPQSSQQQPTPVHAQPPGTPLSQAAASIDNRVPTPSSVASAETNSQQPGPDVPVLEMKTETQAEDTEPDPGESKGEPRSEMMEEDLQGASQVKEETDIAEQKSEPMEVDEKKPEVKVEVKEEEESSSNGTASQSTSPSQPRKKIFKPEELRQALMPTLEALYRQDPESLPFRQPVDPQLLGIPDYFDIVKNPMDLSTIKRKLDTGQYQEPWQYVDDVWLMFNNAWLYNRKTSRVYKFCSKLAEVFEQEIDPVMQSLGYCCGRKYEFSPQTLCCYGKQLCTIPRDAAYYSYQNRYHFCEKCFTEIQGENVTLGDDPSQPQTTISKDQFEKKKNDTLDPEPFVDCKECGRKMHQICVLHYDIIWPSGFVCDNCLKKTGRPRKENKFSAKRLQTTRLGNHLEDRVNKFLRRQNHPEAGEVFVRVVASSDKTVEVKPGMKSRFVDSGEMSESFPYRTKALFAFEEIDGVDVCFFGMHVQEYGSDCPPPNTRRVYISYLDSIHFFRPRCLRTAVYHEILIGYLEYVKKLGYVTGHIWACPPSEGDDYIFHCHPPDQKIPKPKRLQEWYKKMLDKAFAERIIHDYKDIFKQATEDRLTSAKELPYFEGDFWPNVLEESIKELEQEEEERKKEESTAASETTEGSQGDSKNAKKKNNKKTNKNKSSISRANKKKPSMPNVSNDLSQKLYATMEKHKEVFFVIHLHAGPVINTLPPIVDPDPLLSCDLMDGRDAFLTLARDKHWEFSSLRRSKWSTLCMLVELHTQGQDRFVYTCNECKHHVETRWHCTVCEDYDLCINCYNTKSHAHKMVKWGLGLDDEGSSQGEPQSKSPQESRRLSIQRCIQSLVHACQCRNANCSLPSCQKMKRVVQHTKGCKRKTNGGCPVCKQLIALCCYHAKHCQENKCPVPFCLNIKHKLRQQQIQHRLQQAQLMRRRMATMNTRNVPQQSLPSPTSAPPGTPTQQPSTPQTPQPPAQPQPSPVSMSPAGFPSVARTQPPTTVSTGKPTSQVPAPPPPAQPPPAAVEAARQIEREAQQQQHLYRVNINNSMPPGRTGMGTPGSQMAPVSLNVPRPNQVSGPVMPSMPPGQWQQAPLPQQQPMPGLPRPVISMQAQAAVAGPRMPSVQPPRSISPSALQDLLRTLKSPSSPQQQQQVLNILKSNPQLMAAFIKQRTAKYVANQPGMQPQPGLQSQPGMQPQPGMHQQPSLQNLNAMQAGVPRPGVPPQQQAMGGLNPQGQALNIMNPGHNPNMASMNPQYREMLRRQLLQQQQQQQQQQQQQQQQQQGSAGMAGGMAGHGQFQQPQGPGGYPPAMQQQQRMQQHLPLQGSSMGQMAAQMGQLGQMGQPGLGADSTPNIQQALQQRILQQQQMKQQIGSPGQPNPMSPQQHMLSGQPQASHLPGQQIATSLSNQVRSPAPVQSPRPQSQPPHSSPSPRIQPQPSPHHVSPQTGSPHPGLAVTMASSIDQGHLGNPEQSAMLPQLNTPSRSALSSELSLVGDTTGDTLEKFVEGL
UniProt Q09472, whole entry: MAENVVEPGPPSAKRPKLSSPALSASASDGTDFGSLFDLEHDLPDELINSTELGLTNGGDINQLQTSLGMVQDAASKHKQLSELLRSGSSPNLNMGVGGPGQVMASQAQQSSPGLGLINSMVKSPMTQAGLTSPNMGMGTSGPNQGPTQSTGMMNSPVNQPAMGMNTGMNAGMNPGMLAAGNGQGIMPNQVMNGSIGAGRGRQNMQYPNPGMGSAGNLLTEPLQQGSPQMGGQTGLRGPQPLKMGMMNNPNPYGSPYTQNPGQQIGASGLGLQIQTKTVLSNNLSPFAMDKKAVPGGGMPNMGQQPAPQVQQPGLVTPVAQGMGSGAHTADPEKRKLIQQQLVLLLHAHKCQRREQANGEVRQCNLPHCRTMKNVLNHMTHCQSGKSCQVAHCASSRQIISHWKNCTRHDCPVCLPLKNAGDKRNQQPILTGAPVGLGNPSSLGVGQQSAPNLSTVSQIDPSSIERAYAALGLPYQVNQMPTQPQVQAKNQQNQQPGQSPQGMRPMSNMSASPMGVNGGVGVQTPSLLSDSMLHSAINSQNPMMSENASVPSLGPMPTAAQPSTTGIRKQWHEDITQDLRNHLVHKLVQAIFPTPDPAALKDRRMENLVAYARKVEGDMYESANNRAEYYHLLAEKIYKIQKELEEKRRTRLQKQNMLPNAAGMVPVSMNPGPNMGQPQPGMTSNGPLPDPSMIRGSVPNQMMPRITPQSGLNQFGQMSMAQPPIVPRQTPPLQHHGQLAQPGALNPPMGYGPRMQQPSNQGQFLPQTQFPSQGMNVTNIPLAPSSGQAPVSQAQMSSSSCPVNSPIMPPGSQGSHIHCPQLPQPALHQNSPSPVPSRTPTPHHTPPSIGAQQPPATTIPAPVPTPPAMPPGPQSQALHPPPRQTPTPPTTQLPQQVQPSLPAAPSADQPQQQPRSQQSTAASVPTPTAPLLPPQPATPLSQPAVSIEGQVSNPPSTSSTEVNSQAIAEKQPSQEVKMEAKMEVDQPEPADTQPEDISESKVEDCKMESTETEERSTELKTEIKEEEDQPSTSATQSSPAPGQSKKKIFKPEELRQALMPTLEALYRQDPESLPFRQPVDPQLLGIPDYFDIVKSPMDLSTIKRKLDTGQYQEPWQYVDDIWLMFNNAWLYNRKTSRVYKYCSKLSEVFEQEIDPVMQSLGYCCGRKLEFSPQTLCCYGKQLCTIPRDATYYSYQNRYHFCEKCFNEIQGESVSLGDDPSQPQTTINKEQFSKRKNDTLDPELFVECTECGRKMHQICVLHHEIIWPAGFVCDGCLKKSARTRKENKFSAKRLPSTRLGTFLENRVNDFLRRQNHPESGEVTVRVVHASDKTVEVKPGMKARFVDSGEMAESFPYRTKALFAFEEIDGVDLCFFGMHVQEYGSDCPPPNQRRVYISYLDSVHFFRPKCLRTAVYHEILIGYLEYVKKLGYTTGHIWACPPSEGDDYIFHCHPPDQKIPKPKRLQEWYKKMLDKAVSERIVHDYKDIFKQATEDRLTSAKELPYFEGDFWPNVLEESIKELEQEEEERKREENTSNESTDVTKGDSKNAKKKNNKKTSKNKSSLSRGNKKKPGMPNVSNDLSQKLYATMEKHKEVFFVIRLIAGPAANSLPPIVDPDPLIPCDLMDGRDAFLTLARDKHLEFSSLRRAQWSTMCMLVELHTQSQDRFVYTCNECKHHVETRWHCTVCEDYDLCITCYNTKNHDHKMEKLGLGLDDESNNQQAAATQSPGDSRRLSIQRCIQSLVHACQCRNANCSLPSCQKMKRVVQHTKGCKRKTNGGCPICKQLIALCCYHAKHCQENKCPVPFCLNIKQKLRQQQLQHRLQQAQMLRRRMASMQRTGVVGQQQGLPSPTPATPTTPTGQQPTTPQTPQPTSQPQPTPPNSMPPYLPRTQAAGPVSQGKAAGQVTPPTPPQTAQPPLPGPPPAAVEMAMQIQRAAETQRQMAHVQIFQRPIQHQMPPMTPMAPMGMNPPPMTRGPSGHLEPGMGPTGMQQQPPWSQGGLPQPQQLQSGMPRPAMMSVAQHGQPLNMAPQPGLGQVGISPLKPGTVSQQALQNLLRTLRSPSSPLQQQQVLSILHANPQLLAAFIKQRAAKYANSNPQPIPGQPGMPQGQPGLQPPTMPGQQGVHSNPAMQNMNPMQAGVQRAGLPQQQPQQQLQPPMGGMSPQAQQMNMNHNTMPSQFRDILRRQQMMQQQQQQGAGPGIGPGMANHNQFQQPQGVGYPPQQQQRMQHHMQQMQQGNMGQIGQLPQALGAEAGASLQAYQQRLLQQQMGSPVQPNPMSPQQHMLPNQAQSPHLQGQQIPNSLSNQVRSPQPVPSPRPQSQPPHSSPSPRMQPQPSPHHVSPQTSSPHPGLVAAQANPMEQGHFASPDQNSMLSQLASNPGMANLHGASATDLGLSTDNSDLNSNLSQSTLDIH

Key:
[1] = target: Histone acetyltransferase KAT2A/KAT2B (Homo sapiens, UniProt Q92831+Q92830); assay: Inhibition of PCAF bromodomain/GCN5 bromodomain (unknown origin); format: protein assay
CREB-binding protein = CREB-binding protein (Homo sapiens, UniProt Q92793); assay: Binding affinity to CBP bromodomain (unknown origin) assessed as dissociation constant
[2] = target: Histone acetyltransferase p300 (Homo sapiens, UniProt Q09472)

With `CC(C)C[C@H]1C[C@@H](Nc2cnn(C)c(=O)c2Cl)CN(C)C1` the IC50 [1] was 13 nM.
Work on `COC1CCC(n2c([C@H]3CCCC(=O)N3c3ccc(F)c(F)c3)nc3cc(-c4c(C)noc4C)ccc32)CC1` (stereo partly drawn) yielded a Kd (CREB-binding protein) of 1.7 nM and a Kd [2] of 1.3 nM.
